System: transformation of CPP1 to CPP2 in pooled human serum
Experiment: In vitro serum calcification propensity (T50) screening assay
Format: biochemical
Set-up: key to T50: T50 in minutes (time to 50% CPP phase transition)
[1] = concentration 3 μM, one value per experiment

With `O=P1(O)OP(=O)(O)O[C@H]2[C@@H](O1)[C@@H]1OP(=O)(O)OP(=O)(O)O[C@H]1[C@@H]1OP(=O)(O)OP(=O)(O)O[C@@H]21` (racemic) [ITPP, myo-inositol trispyrophosphate] the T50 (concentration 50 μM, one value per experiment) was 340.55.
`CC(O)(P(=O)(O)O)P(=O)(O)O` [Etidronate, etidronate] showed a T50 (concentration 10 μM, one value per experiment) of 341.133.
With `COCCOCCOCCOCCOCCOCCOCCOCCOCCOCCOCCO[C@@H]1[C@@H](OS(=O)(=O)O)[C@H](OP(=O)(O)O)[C@@H](OS(=O)(=O)O)[C@@H](OP(=O)(O)O)[C@H]1OS(=O)(=O)O` (racemic) [OEG11-IP2S3, (±)-4-O-(methoxy-undecaethyleneglycol)-1,3,5-O-tris(sulfato)-myo-inositol-2,6-O-bis(phosphate)] the T50 (concentration 1 μM, one value per experiment) was 244.7 and the T50 [1] was 232.433.
With `NCCCC(O)(P(=O)(O)O)P(=O)(O)O` [Alendronate, alendronate] the “concentration upon which a T50 of 350 min is reached (c350), single experiment” value (one value per experiment (lab journal reference E05-E40)) was 11.4 µM.
With `O[C@H]1[C@H](O)[C@@H](O)[C@H](O)[C@@H](O)[C@H]1O` [myo-Inositol, myo-inositol] the T50 (3 µM, individual experiments, Fig. 2a) was 283.95 min and the T50 [1] was 283.95.
Work on `O=P(O)(O)O[C@@H]1[C@H](OP(=O)(O)O)[C@H](OP(=O)(O)O)[C@@H](O)[C@H](OP(=O)(O)O)[C@H]1OP(=O)(O)O` [IP5, myo-Inositol-1,2,3,5,6-pentakisphosphate] yielded a T50 [1] of 231.7.
`COCCOCCOCCOCCOCCOCCOCCOCCOCCOCCOCCOCCO[C@@H]1[C@@H](OP(=O)(O)O)[C@H](OP(=O)(O)O)[C@@H](OP(=O)(O)O)[C@@H](OP(=O)(O)O)[C@H]1OP(=O)(O)O` (racemic) [OEG12-IP5, (±)-6-O-(methoxy-dodecaethyleneglycol)-myo-inositol-1,2,3,4,5-pentakis(phosphate)] showed a T50 (concentration 1.6 μM, one value per experiment) of 231.55.
